Reference: patent publication US9814761B2, “Compositions, methods and assays comprising amylin or amlyin analogs for abeta-peptide mediated disorders” (TRUSTEES OF BOSTON UNIVERSITY, priority 2012, dated 2017)

System: serum Aβ1-40 and Aβ1-42
Test: amylin challenge test: i.p. injection, serum Aβ1-40 and Aβ1-42 by ELISA, Tg2576 mice
Type: in vivo
Conditions: injection of human CGRP instead of amylin
Experimental: TgAPP2576 mice (n=5) and control mice (n=5) were used. Intraperitoneal injection of amylin (20 mg/kg) was performed, and blood was drawn and collected at pre-injection, after injection at 5 minutes, 1 hr and 24 hrs. Serum Aβ1-40 and Aβ1-42 were measured using ELISA assay. The results of serum Aβ1-40 and Aβ1-42 for each individual mouse are shown. This experiment has been repeated twice for each mouse and similar results were obtained.
As shown at FIGS. 3A-3E, amylin injection removes Aβ from the brain into blood in APP transgenic mice. Both the Tg2576 and wild type (WT) mice were used for the amylin challenge test. FIGS. 3A-3B. Amylin (20 mg/kg) was intraperitoneally injected (i.p), and blood was drawn and collected at the time points of pre-injection (the control n=7; Tg2576 n=11), after injection 5 minutes (the control n=7; Tg2576 n=6), 1 hr (the control n=7; Tg2576 n=10) and 24 hrs (the control n=7; Tg2576 n=11). Serum Aβ1-40 and Aβ1-42 were measured by using the ELISA assays. FIGS. 3C-3E. The levels of serum Aβ1-40 and Aβ1-42 at pre-injection of amylin were treated as 1 s, and the relative fold increase after amylin injection at each time point was shown and compared with the pre-injection level by using two-way ANOVA. ***p<0.01; **p<0.05 and *p<0.10.
FIGS. 6A-6D depict amylin injection and serum Aβ in mice. […] Serum Aβ1-40 and Aβ1-42 were measured by using the ELISA assays. […]

With “calcitonin gene-related peptide (ACDTATCVTHRLAGLLSRSGGVVKNNFVPTNVGSKAF; Calcitonin gene-related peptide 1; UniProt P06881 83-119, looked up) [human CGRP]” the “surge of serum Aβ after injection” value was “no significant surge”.
